System: monoclonal antibody specific for the natural N-terminal Aβ42 sequence DAEFRH
Experiment: Inhibition assay: mimotope peptides compete with plate-bound DAEFRH-BSA for recognition by the biotinylated monoclonal antibody (ELISA)
Assay type: binding, mice
From the text: 1.: Generation of Monoclonal Antibodies (mAb) to Detect Aβ42-Derived Peptide Species with Free N-Terminus (Free Aspartic Acid at the N-Terminus)
Mice are vaccinated with the 6mer peptide DAEFRH (SEQ ID NO: 26) (natural N-terminal Aβ42 sequence) linked to the protein bovine serum albumin BSA (to make use of the hapten-carrier-effect), emulsified in CFA (first injection) and IFA (booster injections). DAEFRH (SEQ ID NO: 26)-peptide-specific, antibody-producing hybridomas are detected by ELISA (DAEFRH (SEQ ID NO: 26)-peptide-coated ELISA plates).
FIGS. 2 and 3 describe the results of inhibition assays performed with mimotope peptides included in and obtained from the 5 libraries (as described). The mimotope peptides compete with the original epitope for recognition by the monoclonal antibody. Original epitope and mimotope peptides contain an additional C at the C-terminus for coupling to a protein carrier (if desired).
After blocking with PBS/BSA 1% (200 μl/well, 12 h, 4° C.), the plates are washed 3× times with PBS/Tween. Then, biotinylated monoclonal antibody (1:2000, 50 μl/well) and peptides (50 μl/well) at 50, 5, 0.5, 0.05, 0.005, and 0.0005 μg/ml are added for 20 min. at 37° C. The plates are washed 3× times with PBS/Tween and are incubated with horseradish peroxidase (HRP)-labeled streptavidin (100 μl/well, 30 min, RT). […]

Q: How did the “inhibition of epitope recognition by the monoclonal antibody (in words)” value (FIGS. 2-9) turn out when `CC(C)C[C@H](NC(=O)[C@H](CCC(=O)O)NC(=O)[C@H](CCCCN)NC(=O)[C@@H](N)CC(=O)O)C(=O)N[C@@H](CCCNC(=N)N)C(=O)N[C@@H](CS)C(=O)O` [Peptide 1238, DKELR] was run?
A: The value was “block epitope recognition”.

Q: What about the “Inhibitory capacity of mimotopes” value (summary Tables 1 and 2, in words) of the same compound?
A: Its value is “strong”.
